Assay results: ChEMBL document CHEMBL4616678, “Design, Synthesis, and Physicochemical and Pharmacological Profiling of 7-Hydroxy-5-oxopyrazolo[4,3-b]pyridine-6-carboxamide Derivatives with Antiosteoarthritic Activity In Vivo” (J Med Chem, 2020)

species: Homo sapiens; test: Selectivity index, ratio of Ki for recombinant human CB1R expressed in HEK293 cell membranes to Ki for recombinant human CB2R expressed in HEK293 cell membranes; type: cell-based

| Compound | Ratio Ki |
| --- | --- |
| CC(=O)OCCCCn1c(=O)c(C(=O)NC23CC4CC(CC(C4)C2)C3)c(O)c2nn(C)cc21 | > 57 |
| Cn1cc2c(n1)c(O)c(C(=O)NC13CC4CC(CC(C4)C1)C3)c(=O)n2CCCCF | 253 |
| CCCCn1c(=O)c(C(=O)NC23CC4CC(CC(O)(C4)C2)C3)c(O)c2nn(C)cc21 | > 94 |
| CCCCCn1c(=O)c(C(=O)NC23CC4CC(CC(O)(C4)C2)C3)c(O)c2nn(CCO)cc21 | 9 |
| CN1N=CC2C1C(O)=C(C(=O)NC13CC4CC(CC(O)(C4)C1)C3)C(=O)N2CCCCF (configuration not stated) | 8 |
| CN1N=CC2C1C(O)=C(C(=O)NC13CC4CC(CC(C4)C1)C3)C(=O)N2CCCCF (configuration not stated) | 28 |
| CCCCn1c(=O)c(C(=O)NC23CC4CC(CC(C4)C2)C3)c(O)c2nn(CCO)cc21 | > 54 |
| CCCCN1C(=O)C(C(=O)NC23CC4CC(CC(C4)C2)C3)=C(O)C2C1C=NN2C (configuration not stated) | 38 |
| CCCCCn1c(=O)c(C(=O)NC23CC4CC(CC(C4)C2)C3)c(O)c2nn(CCO)cc21 | 22 |
| Cn1cc2c(n1)c(O)c(C(=O)NC13CC4CC(CC(C4)C1)C3)c(=O)n2CCCCO | > 70 |
| Cn1cc2c(n1)c(O)c(C(=O)NC13CC4CC(CC(O)(C4)C1)C3)c(=O)n2CCCCF | > 161 |
| CCCCN1C(=O)C(C(=O)NC23CC4CC(CC(O)(C4)C2)C3)=C(O)C2C1C=NN2C (configuration not stated) | 4 |
